Source: patent US8450325B2, “Methods for reducing the recurrence of cardiac arrhythmia” (ChanRx Corp., priority 2002, dated 2013)

Chains of the proteins cited; added tags and fusions are not shown. Lines headed by an entry give the natural chain unless they say otherwise; changes in a name come on top.
UniProt Q12809: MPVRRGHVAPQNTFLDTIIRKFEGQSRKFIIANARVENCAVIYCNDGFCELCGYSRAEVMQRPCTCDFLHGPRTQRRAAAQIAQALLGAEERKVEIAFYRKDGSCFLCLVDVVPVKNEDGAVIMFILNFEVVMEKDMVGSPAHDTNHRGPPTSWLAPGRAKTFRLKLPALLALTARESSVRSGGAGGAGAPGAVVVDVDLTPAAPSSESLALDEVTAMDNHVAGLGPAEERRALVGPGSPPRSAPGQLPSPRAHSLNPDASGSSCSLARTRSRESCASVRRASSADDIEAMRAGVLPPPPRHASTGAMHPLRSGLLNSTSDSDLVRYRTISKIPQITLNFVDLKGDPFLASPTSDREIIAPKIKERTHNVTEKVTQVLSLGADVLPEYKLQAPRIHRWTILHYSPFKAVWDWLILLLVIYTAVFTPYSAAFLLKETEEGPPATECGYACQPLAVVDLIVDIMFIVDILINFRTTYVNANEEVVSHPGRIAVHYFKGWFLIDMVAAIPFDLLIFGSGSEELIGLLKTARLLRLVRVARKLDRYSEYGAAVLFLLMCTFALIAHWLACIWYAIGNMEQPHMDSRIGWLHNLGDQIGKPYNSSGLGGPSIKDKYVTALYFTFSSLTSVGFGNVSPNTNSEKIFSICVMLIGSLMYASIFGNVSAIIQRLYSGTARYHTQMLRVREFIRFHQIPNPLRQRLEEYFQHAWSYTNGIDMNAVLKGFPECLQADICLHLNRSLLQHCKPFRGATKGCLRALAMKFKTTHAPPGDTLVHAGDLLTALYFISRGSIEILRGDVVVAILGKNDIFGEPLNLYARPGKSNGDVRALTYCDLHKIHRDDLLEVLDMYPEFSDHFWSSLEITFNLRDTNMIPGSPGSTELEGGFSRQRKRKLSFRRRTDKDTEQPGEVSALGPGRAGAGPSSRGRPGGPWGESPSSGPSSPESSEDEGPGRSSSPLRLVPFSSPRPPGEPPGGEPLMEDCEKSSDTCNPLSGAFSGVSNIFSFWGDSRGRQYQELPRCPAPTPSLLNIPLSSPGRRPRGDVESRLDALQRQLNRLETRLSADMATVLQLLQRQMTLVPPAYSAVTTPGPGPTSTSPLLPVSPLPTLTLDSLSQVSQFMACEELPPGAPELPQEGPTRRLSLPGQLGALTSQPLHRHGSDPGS

Molecular target: hERG (IKr) channel (Homo sapiens, UniProt Q12809)
Assay: cell-based

Fc1ccc(C(OCCN2CCN(CCCc3ccccc3)CC2)c2ccc(F)cc2)cc1 [Vanoxerine, vanoxerine]
IC50: 15 nM
